Measurements published in PubChem BioAssay AID449728 (The Scripps Research Institute Molecular Screening Center, 2010).
The entries are a selection whose mix differs from that of the whole data set. Some results for these compounds are left out of this collection, so the calls shown say nothing about other tests. The source made the active and inactive calls.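 The calls were made as follows: active = inhibition above the campaign's mean inhibition across all tested compounds plus 3 SD (cut at about 9.9% in these data); inactive = the rest.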

Assay: E. coli V3065 growth inhibition, primary screen, counter-screen for AddAB inhibitor project, absorbance, OD600 (AID 449728);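 also: uninfected addAB+ strain grown without phage in ampicillin broth; 0% = DMSO wells and 100% = ciprofloxacin 0.95 µg/ml wells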
Details: 18 h, at 11.9 µM, active compounds read high

| SMILES | inhibition |
| --- | --- |
| Cc1ccccc1C(=O)NCC1(N2CCCCC2)CCCCC1 | inactive: -0.42% |
| CN(C)C1CCCC1OC(=O)C(O)(c1ccccc1)c1ccccc1 (centres undefined) | inactive: 0.17% |
| CN(C)c1ccc(C(=O)NCC2(N(C)C)CCCCC2)cc1 | inactive: 1.82% |
| C=CCN1CCN(CCOC(=O)C(O)(c2ccccc2)c2ccccc2)CC1 | inactive: 1.69% |
| O=C(NCC1(N2CCCCC2)CCCCC1)c1cc(F)c(F)cc1Cl | inactive: -0.94% |
| COc1ccc(C(=O)NCC2(N(C)C)CCCCC2)cc1 | inactive: -1.09% |
| Cc1cc(C(=O)NCC2(N3CCCCC3)CCCCC2)ccc1[N+](=O)[O-] | inactive: 0.42% |
| CCN1CCCC(OC(=O)C2(O)c3ccccc3C=Cc3ccccc32)C1 (centres undefined) | inactive: -0.6% |
| O=C(NCC1(N2CCCCC2)CCCCC1)c1cccc(Br)c1 | inactive: 0.77% |
| O=C(NCC1(N2CCCCC2)CCCCC1)c1cc([N+](=O)[O-])ccc1Cl | inactive: 0.59% |
| CN1[C@@H]2CC[C@H]1CC(OC(=O)C(O)(c1ccccc1)c1ccccc1)C2 (some centres undefined) | inactive: -1.73% |
| CCN(CC)CC(C)C(C)OC(=O)C(O)(c1ccccc1)c1ccccc1 (centres undefined) | inactive: 1.63% |
| COc1cc(SC)ccc1C(=O)NCC1(N(C)C)CCCCC1 | inactive: 0.82% |
| CC(C)N1C(=O)CC2(CCN(CCOC(=O)C(O)(c3ccccc3)c3ccccc3)CC2)C1=O | inactive: 1.03% |
| Cc1ccc(C(=O)NCC2(N3CCCCC3)CCCCC2)cc1 | inactive: -1.71% |
| O=C(OC1CN2CCC1CC2)C(CO)(c1ccccc1)c1ccccc1 (centres undefined) | inactive: 2.85% |
| COc1ccc(Br)c(C(=O)NCC2(N3CCCCC3)CCCCC2)c1 | inactive: -2.82% |
| CC(C)Oc1ccc(C(=O)NCC2(N(C)C)CCCCC2)cc1 | inactive: -0.36% |
| CN(C)c1cccc(C(=O)NCC2(N(C)C)CCCCC2)c1 | inactive: -0.72% |
| CN(C)C1(CNC(=O)c2ccc(Br)cc2)CCCCC1 | inactive: -0.18% |
| COc1cc(C(=O)NCC2(N(C)C)CCCCC2)c([N+](=O)[O-])cc1OC | inactive: 1.51% |
| COc1cccc(C(=O)NCC2(N3CCCCC3)CCCCC2)c1 | inactive: -0.51% |
| COc1ccc(Cl)cc1C(=O)NCC1(N(C)C)CCCCC1 | inactive: 0.5% |
| O=C(NCC1(N2CCCCC2)CCCCC1)c1cccc(Cl)c1 | inactive: 1.36% |
